Values quoted from earlier work, collected in paper PMC5651683.
pKd: −log10 of the molar value.

Chains of the proteins cited; added tags and fusions are not shown. Residues count along the entry.
UniProt Q16623, 1-20: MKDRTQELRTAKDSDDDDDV

Target: syntaxin N-peptide N-peptide motif (UniProt Q16623)

pKd: < 4.51
Substance: Munc18a (from UniProt P61764)
